## Vapor pressure values, as collected for the OPERA models

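These are experimental values that the OPERA curators gathered from public databases to train and test their QSAR models. One number stands for a compound and property, with no spread given. Conditions of the individual experiments are not part of the data. The measured form (salt, isomer or mixture) is not always the one drawn. Some entries may be limits or estimates that an upstream database listed as plain numbers.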

Vapor pressure is log10 of mmHg; the set covers 15 to 30 °C, mostly 20 to 25 °C.

SMILES	vapor pressure (log10 mmHg)
CCC(=O)OC1CCC(C(C)C)CC1 (stereo not given)	-1.397
c1cc(C2(c3ccc(OCC4CO4)cc3)CCCCC2)ccc1OCC1CO1 (stereo not given)	-9.594
CCNC(=S)NCC	-5.319
CS(=O)(=O)c1ccc(C=O)c(C(F)(F)F)c1	-5.471
CCOC(=O)C(C)=O	0.248
COc1ncnc(NS(=O)(=O)c2ccc(N)cc2)c1OC	-8.801
CCCCCCCC[N+](C)(C)[O-]	-4.949
Cc1cc2nc(O)[nH]c2cc1N	-3.763
CC(C)(O)Cc1ccccc1	-0.202
Cc1cccc(Cl)c1C	-0.512
CN(/N=C/c1cc[n+](C)cc1)c1ccccc1.COS(=O)(=O)[O-]	-9.698
CC(Oc1ccc(Cl)cc1Cl)C(O)=NC(C)(C#N)C(C)C (stereo not given)	-9.801
COc1cc(C)ccc1O	-1.62
O=C=Nc1ccc(OP(=S)(Oc2ccc(N=C=O)cc2)Oc2ccc(N=C=O)cc2)cc1	-5.736
C=CC(=O)OCC(C)OCC(C)OCC(C)OC(=O)C=C (stereo not given)	-4.481
CCCCOc1ccc(C2=CCC([C@H]3CC[C@H](CC)CC3)CC2)c(F)c1F (stereo partly specified)	-8.377
CC(O)CCC1CCCCC1 (stereo not given)	-0.204
CCC(C)(C)C1CCC(=O)CC1	-1.502
Nc1nc(=O)[nH]cc1F	-10.95
CCCC(C)(C)C(=O)Nc1ccc(Cl)cc1	-5.535
CCCCOCCCN1C(C(C(=O)Nc2cc(C(C)(C)C)ccc2SCC(CC)CCCC)N2C(=O)OC(C)(C)C2=O)=Nc2ccccc2S1(=O)=O (stereo not given)	-4.727
C=COCCCCOC=C	0.051
COC(C)(C)CCOC(C)=O	0.287
O=C1CCCC=CCCCCCCCCCC1	-3.824
Nc1ccc(S(=O)(=O)Nc2ccccn2)cc1	-4.203
Cn1cc(C(=O)Nc2ccccc2-c2cc(F)c(F)c(F)c2)c(C(F)F)n1	-10.69
OCCSCC(O)CSCCO	-4.852
COc1cc(C=O)c(Cl)c(OC)c1O	-3.225
CCC(=O)CC(C)CC (stereo not given)	0.301
Clc1cc(Cl)cc(-c2c(Cl)c(Cl)cc(Cl)c2Cl)c1	-5.015
OCC(O)CS (stereo not given)	-2.023
CC(C)(C)c1cc(CCC(=O)O)ccc1O	-6.046
CCCCCCCC(=O)OCC(CCC)CCCCC (stereo not given)	-2.9
O=C(O)CC(=O)C(=O)O	-4.498
CCCCCCCCn1sc(Cl)c(Cl)c1=O	-5.131
O=C1CCC(O)C2C3CCC(C3=C(Cl)Cl)C12 (stereo not given)	-5.122
C1CN(SSN2CCOCC2)CCO1	-4.523
Brc1ccc(Oc2c(Br)cccc2Br)cc1	-4.791
CCCCCCCC(=O)OCC	-0.147
COc1cc(C=O)ccc1OC(=O)C(C)C	-3.764
CC1CC(=O)OC1=O (stereo not given)	-1.51
O=[N+]([O-])c1ccc(Cl)cc1O	-1.222
CC(C)(C)OC(=O)N1CCN(c2ccc(N)nc2)CC1	-6.975
CCCCCCOC1CCC(C)(C)O1 (stereo not given)	-1.23
Cc1cn2c(nc1=O)O[C@@H]1[C@@H](O)[C@H](CO)O[C@@H]12	-5.041
NCc1cccc(CN)c1	-1.523
Nc1ncccc1O	-4.28
CCCCc1nc(Cl)c(CO)n1Cc1ccc(-c2ccccc2-c2nnn(C(c3ccccc3)(c3ccccc3)c3ccccc3)n2)cc1	-7.084
CO[Si](C)(C)OC	1.813
COc1ccc(C(=O)c2ccccc2)c(O)c1	-5.255
OCCC1CCCCN1 (stereo not given)	-2.139
C[N+](C)(C)CC(O)CSCCC(F)(F)C(F)(F)C(F)(F)C(F)(F)C(F)(F)C(F)(F)F.[Cl-] (stereo not given)	-8.101
CCC(C)NC(N)=O (stereo not given)	-4.979
F/C(=C\Cl)C(F)F	2.331
O=C([O-])[C@H](O)[C@@H](O)C(=O)[O-].[Sr+2]	-9.837

Repeated from above, the 7 entries with the highest vapor pressure:

SMILES	vapor pressure (log10 mmHg)
F/C(=C\Cl)C(F)F	2.331
CO[Si](C)(C)OC	1.813
CCC(=O)CC(C)CC (stereo not given)	0.301
COC(C)(C)CCOC(C)=O	0.287
CCOC(=O)C(C)=O	0.248
C=COCCCCOC=C	0.051
CCCCCCCC(=O)OCC	-0.147

From the experimental data distributed with OPERA 2.9.